Test results as given in patent US8129417B2, “Substituted octahydrocyclopenta[C]pyrrol-4-amines as calcium channel blockers” (Abbott Laboratories, priority 2008, dated 2012).

By UniProt entry, the sequences of proteins in these tests, tags left out.
UniProt Q00975, whole entry: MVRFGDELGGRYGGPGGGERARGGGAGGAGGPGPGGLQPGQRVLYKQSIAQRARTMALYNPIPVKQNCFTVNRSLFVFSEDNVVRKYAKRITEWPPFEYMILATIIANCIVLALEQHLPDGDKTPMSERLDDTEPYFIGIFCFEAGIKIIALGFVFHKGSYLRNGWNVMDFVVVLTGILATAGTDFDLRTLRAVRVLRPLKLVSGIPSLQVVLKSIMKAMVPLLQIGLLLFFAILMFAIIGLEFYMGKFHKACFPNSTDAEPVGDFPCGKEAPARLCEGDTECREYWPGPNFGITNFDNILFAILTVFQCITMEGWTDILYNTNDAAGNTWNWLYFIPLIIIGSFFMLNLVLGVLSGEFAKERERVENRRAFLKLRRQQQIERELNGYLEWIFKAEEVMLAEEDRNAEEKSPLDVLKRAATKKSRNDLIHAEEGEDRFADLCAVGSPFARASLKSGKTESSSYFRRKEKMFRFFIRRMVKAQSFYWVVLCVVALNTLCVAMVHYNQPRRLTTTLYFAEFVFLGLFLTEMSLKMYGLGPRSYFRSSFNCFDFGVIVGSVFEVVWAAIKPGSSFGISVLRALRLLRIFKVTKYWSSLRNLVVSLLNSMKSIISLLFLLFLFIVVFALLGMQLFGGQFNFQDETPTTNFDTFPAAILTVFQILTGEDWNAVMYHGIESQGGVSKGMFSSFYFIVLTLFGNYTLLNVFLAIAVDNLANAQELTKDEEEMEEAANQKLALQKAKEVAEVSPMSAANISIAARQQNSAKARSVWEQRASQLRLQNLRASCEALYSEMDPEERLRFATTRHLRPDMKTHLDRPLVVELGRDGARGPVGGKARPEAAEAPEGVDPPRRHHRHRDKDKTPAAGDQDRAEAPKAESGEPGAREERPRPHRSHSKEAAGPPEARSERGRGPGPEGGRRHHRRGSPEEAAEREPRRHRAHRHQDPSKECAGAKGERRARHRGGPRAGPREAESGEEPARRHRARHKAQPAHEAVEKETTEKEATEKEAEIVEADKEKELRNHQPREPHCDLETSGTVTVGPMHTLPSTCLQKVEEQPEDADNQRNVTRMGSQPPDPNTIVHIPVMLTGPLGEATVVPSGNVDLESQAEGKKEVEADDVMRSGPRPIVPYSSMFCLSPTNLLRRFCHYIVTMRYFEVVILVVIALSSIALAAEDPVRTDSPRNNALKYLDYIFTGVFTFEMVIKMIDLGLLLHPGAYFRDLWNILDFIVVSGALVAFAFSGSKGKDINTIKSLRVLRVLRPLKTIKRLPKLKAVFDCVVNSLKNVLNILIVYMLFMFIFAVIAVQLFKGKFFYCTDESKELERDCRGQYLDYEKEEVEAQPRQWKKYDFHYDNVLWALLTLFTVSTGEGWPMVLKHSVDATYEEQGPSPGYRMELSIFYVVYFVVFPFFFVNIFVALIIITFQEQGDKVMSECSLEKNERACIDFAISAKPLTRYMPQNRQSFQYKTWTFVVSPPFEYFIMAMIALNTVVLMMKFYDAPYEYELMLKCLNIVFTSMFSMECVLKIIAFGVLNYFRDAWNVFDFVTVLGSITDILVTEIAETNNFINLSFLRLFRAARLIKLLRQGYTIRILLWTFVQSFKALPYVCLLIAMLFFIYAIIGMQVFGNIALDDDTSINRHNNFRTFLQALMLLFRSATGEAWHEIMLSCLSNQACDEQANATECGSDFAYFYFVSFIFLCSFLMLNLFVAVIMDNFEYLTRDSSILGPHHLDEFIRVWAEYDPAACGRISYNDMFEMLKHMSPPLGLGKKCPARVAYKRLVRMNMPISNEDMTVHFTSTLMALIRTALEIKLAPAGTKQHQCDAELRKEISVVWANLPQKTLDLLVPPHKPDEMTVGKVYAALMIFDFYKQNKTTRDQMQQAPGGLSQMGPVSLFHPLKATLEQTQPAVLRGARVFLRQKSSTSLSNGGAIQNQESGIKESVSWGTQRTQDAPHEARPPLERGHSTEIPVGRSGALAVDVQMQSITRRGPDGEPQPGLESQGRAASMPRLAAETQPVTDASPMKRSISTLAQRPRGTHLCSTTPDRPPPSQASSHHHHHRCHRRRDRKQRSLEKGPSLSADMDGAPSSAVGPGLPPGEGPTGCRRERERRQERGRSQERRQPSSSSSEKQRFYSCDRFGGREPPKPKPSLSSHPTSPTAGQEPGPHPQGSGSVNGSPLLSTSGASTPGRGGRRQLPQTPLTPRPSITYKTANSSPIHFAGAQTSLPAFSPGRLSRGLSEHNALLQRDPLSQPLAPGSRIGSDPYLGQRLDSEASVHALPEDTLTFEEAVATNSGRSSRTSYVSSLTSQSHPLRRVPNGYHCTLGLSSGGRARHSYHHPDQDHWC

Molecular target: human Cav2.2 (Homo sapiens, UniProt Q00975)
Test: Assessment of calcium channel activity using FLIPR (Ca2+ influx in IMR32 cells)
Assay type: cell-based
Method: (i) In Vitro Methods—Assessment of Calcium Channel Activity Using FLIPR:
The IMR32 cells were maintained in MEM media containing 10% (v/v) FBS, 1% (v/v) antibiotic/antimitotic, 1% (v/v) sodium pyruvate and 1% (v/v) MEM NEAA. Following dissociation in 0.05% (v/v) trypsin/EDTA, cells were seeded into black 1×96-well plates (Corning Cellbind) at a density of 1-1.2×10^5 cells/well and incubated in the maintenance media above for 48 hours at 37° C. […] To determine the IC50 values, the percent inhibition of the compound at each concentration was determined relative to the activity in the absence of inhibitor, and data was fitted using non-linear regression sigmoidal dose response curve analysis with GraphPad Prism®.

For `CC(C)N[C@@H](CC(C)(C)C)C(=O)N[C@H]1CC[C@@H]2CN(S(=O)(=O)c3ccc(C(F)(F)F)cc3)C[C@@H]21` [Example 480, N^2-isopropyl-4-methyl-N^1-((3aR,4S,6aS)-2-{[4-(trifluoromethyl)phenyl]sulfonyl}octahydrocyclopenta[c]pyrrol-4-yl)-L-leucinamide], the IC50 was 1.31 µM.
